Experimental data published in US7238652B2, “Personal care compositions comprising alkyl phosphate surfactants and selected weak acid auxiliary agents” (priority 2005, dated 2007).

System: Zein protein
Assay: Zein solubilization test (mildness / irritation potential)
Conditions: pH 6.0, 5% total surfactant solutions, Zein and surfactant contacted for 24 hours
Protocol: • 1. Prepare a 5 wt. % aqueous solution of the surfactant. If the natural pH of the system differs from that desired, adjust by incremental addition of acid or base. • 2. Mix 4 grams of Zein protein in 40 grams of the surfactant solution. Allow the mixture to stand at room temperature for 24 hours with frequent vigorous shaking. • 3. Filter the supernatant of the Zein/surfactant mixture using a syringe filter with a 0.45 micron Nylon membrane. Dilute the filtered solution 100-fold with 2% SDS solution (i.e., 0.1 gram filtered solution diluted in 10 grams of 2% SDS solution). As a reference, also prepare a diluted surfactant solution by mixing 0.1 grams of 5 wt. % surfactant solution with 10 grams of 2% SDS solution. • 4. The Zein concentration is determined using a UV/VIS spectrophotometer operated in the range 200-350 nm at a scanning rate of 800 nm/min, using a 2% SDS solution as the background.

Q: With “Coco aminopropyl betaine [Coco aminopropyl betaine (CAPB)]” as the substance, how does the “Percent Zein solubilized” value read?
A: 3.28%
